Here are results for one substance from patent US20130096098A1, “Light Insensitive Silver(i) Cyanoximates As Antimicrobial Agents For Indwelling Medical Devices” (MISSOURI STATE UNIVERSITY, priority 2011, published 2013).

This series is described as follows: UV-light stability studies, low-pressure Hg lamp 254 nm. Type of series: physicochemical. As to the method:
Photophysical Measurements. Light sensitivity and stability of synthesized Ag(I) cyanoximates was studied at 296 K using a low-pressure Hg lamp with >85% output at λmax=254 nm where the intensity of light was measured with a UVX radiometer (UK). After 4 min warm-up time, this lamp generated a steady flux of UV-radiation that was equal to the dose of 10.13 J/cm^2 within 30 min. Prior to these investigations, complexes were thoroughly dried under high vacuum (<10^−4 Torr) and ground into a powder using an agate mortar. This made it easy to apply these compounds to paper, adhesive tape, or cardboard. Samples of complex were spread on white cardboard with an exposed circular area (via a mask) of ˜3 cm. The radiation source was positioned 1 cm from the sample. A pristine white silver chloride prepared in the dark was used as a control substance to access the light stability of silver(I) cyanoximates. Digital pictures of irradiated samples were taken every 30 min using a stationary digital camera (Kodak DX7630; 6.1 Mpx), and native images were cropped to square shape without any contrast or brightness editing using Samsung Digimax Viewer 2.0 software.

With “Silver(I) α-Oximido-(2-pivaloyl)acetonitrile [Ag(PiCO)]”, the “stability toward short wavelength UV-radiation” value was “resistance”.
